In paper PMC5850989 (Toxicology letters, 2016):

What was measured:
[1] = format: in vivo, CB-17 scid/scid mice; details: KB-3-1 xenograft
[2] = format: in vivo, SCID mice; details: Bea-treated mice, 5 mg/kg i.p.
[3] = Evaluation of toxicological effects: body weight, behavior, histology; format: in vivo, SCID mice; details: 5 mg/kg i.p., short-term and 9-day schedules
[4] = oral administration; ref Panel, 2014; cited from earlier work
CYP 450 enzymes = details: ref Mei et al., 2009; cited from earlier work
[5] = 5 mg/kg b.w. i.p. daily, 9 days, mean ± SD (n = 4)

Beauvericin
Concentration in serum [1, 5]: 2.6 ± 0.6 µg/kg
Concentration in tumor [1, 5]: 3.4 ± 0.4 µg/kg
Degradation products (metabolites) in tumor tissues ([1]; 9-day treatment, 5 mg/kg i.p.): no degradation products could be found
Tumor level compared to serum ([1]; 9-day treatment): 1.3 fold
Metabolites in the assayed samples [2]: no metabolites were detected
Apparent signs of toxicity (food and fluid consumption, fatigue, body weight alterations) [3]: None of the treatment schedules showed apparent signs of toxicity
LD50 [4]: ≥ 100 mg/kg b.w.
Inhibition of CYP 450 enzymes (CYP 450 enzymes): potent inhibitor of diverse CYP 450 enzymes
